The results in this text go back to ChEMBL document CHEMBL4020848, “Antibacterial Activity Affected by the Conformational Flexibility in Glycine-Lysine Based α-Helical Antimicrobial Peptides” (J Med Chem, 2018).

Values after ≈ are worked out from the molar mass of the structure shown.

The assay has as its system Escherichia coli. Briefly: Antibacterial activity against Escherichia coli ATCC 25922 after 18 hrs by microdilution method. As to conditions: ATCC 25922, 18 h. Format: functional. Background: Broth dilution looks for growth in wells or tubes with falling amounts of substance.

Regarding `CC[C@H](C)[C@H](NC(=O)CN)C(=O)NCC(=O)N[C@@H](C)C(=O)N[C@H](C(=O)N[C@@H](CC(C)C)C(=O)N[C@@H](CCCCN)C(=O)N[C@H](C(=O)N[C@@H](CC(C)C)C(=O)N[C@H](C(=O)N[C@H](C(=O)NCC(=O)N[C@@H](CC(C)C)C(=O)N1CCC[C@H]1C(=O)N[C@@H](C)C(=O)N[C@@H](CC(C)C)C(=O)N[C@H](C(=O)N[C@@H](CO)C(=O)N[C@@H](Cc1c[nH]c2ccccc12)C(=O)N[C@H](C(=O)N[C@@H](CCCCN)C(=O)N[C@@H](CCCNC(=N)N)C(=O)N[C@@H](CCCCN)C(=O)N[C@@H](CCCNC(=N)N)C(=O)N[C@@H](CCC(N)=O)C(=O)N[C@@H](CCC(N)=O)C(N)=O)[C@@H](C)CC)[C@@H](C)CC)[C@@H](C)O)[C@@H](C)O)C(C)C)C(C)C` [MELITTIN], 10 µM (≈ 28.5 µg/mL) was the least that counted as inhibitory (MIC).

The term MIC denotes the least concentration at which growth counts as inhibited. Read a high MIC as a need for much substance.
